Experimental data: PMC2292216 (The Journal of Experimental Medicine, 2008)

Tested on: human platelets
Conditions: pretreatment of platelets with 10 μM aspirin, arachidonic acid stimulation

CC(=O)Oc1ccccc1C(=O)O [aspirin]
effect on BLT2 agonistic activity of platelet lipid fractions 7 and 8: completely abolished BLT2 agonistic activity
